The target of the experiment is Short transient receptor potential channel 4 (Mus musculus) (UniProt Q9QUQ5). Description: DAMGO-gated TRPC4 membrane potential modulation – cell-based, second specificity screen, HEK293 TRPC4/mu-opioid, selectivity assay for TRPC6 inhibitor project, confirmation (AID 2776). To be noted: HEK293 TRPC4/MOR, membrane potential dye fluorescence; at 10 µM; channel activated by saturating DAMGO dose.

Chains of the proteins cited; added tags and fusions are not shown.
UniProt Q9QUQ5, whole entry: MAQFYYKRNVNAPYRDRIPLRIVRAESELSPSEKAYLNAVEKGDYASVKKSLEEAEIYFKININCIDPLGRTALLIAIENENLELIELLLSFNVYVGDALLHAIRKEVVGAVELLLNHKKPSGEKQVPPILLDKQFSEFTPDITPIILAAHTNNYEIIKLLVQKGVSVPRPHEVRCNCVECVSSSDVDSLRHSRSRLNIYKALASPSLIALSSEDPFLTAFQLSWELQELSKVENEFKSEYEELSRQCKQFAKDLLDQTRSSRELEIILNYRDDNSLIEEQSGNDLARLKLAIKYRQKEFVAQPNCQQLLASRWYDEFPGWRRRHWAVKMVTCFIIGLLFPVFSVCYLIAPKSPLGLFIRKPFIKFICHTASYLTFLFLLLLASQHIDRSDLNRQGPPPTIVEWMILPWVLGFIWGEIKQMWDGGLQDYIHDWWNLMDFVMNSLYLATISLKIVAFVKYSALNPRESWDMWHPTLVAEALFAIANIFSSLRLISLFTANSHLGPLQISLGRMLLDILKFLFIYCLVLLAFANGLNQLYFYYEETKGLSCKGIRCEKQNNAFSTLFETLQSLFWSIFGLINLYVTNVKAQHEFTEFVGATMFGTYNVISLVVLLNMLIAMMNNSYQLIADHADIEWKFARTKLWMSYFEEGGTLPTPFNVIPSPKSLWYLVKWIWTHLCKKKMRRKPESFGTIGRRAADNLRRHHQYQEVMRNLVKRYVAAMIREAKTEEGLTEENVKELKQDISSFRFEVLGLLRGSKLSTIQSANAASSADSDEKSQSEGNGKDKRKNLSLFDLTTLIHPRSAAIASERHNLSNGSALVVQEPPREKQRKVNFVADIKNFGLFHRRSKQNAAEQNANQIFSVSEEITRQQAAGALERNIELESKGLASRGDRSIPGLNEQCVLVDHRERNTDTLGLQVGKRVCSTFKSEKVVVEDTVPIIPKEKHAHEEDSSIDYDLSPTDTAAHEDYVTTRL

Each structure is given as a SMILES string. This is a selection; strong and weak results do not stand in their true shares. Activity calls are given as the source filed them.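 How the source made its calls: active means compounds whose fluorescence signal differed from control wells by over 3 SD, either direction, in both duplicate plates; inactive means the rest.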

As for `CCC(CO)(C(=O)OC1CN2CCC1CC2)c1ccccc1` (configuration not stated), the molecule was called inactive.

Turning to `O=C(OC1CN2CCC1CC2)C1c2ccccc2Oc2ccccc21` (configuration not stated), the outcome was inactive.

These data come from PubChem BioAssay AID2776 (Johns Hopkins Ion Channel Center, 2010).
